Bounds are passed on as bounds.

The target of this assay is EGFR (Homo sapiens (Human), UniProt P00533). The experiment in a line: HTRF KinEASE-TK kinase assay, EGFR. The format is biochemical. Here is the method:
Kinase activity was monitored using a HTRF® KinEASE-TK kit from Cisbio (62TK0PEC). The buffer used was 1× kinase buffer supplemented with 2 mM MnCl2, 5 mM MgCl2, 1 mM TCEP and 100× diluted Supplementary Enzyme Buffer. EGFR was purchased from Promega. […] Reaction with substrate was then initiated by adding biotinylated substrate and ATP. […] After 60 min of incubation, the fluorescence emission was measured at 620 nm and 665 nm. The ratio of Em 665 nm to Em 620 nm was proportional to the amount of substrate phosphorylated by the kinase.
For initial screening, enzymes were pre incubated with compounds at 2 different concentrations (1 and 10 uM final) and 0.5% DMSO.
For orientation: Time-resolved FRET reads energy transfer from a long-lived donor to a nearby acceptor.

For `COc1c(F)c(F)c(F)c(F)c1S(=O)(=O)n1nc(-c2ccc(Oc3ccccc3)cc2)c2c(N)ncnc21` [Compound I-23, 3-(4-phenoxyphenyl)-1-((2,3,4,5-tetrafluoro-6-methoxyphenyl)sulfonyl)-1H-pyrazolo[3,4-d]pyrimidin-4-amine], the remaining activity at 1 µM (read-out: % EGFR Remaining activity vs DMSO (1 μM, 3 h)) fell in the range of 50 to 90%. The remaining activity at 10 µM (read-out: % EGFR Remaining activity vs DMSO (10 μM, 3 h)) was below 50%.

Usually remaining activity stands for the signal under treatment as a percentage of the control signal.

The values above are taken from US20240018153A1, “BENZENESULFONAMIDE DERIVATIVES AND USES THEREOF” (2692372 ONTARIO, INC., priority 2020, published 2024).
